An excerpt weighted towards active compounds, which were near 2.2% of everything screened.
PI4K2A inh: blocks human PI4K2A kinase activity; Q9BTU6; purified PI4K2A, ADP-Glo luminescence, 1 h; active compounds read low; activity change, negative = inhibition, % at 76.9 µM; 420,000 tested, 0.13% active; in the data active = activity change below about -50%; inconclusive = mostly about -30% to -49%;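 note: -100% = wells without enzyme as full effect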
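Compounds are screened against recombinant PI4K2A using PI as substrate and ATP, the latter dispensed at 300 microM. Reactions run one hour at ambient temperature before ADP-Glo detection; full inhibition defined by wells lacking enzyme.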
miR-21 FLuc: miR-21 reporter, rising signal. HeLa miR-21 FLuc reporter, luciferase, 48 h. Potency, µM (titrated, usually from 38.3 µM), without a hit: at the top dose reporter change, positive = more light. 340,000 tested, under 10 active. AID 2288; active = well fitted rising curve with a large enough effect; inconclusive = small, poorly fitted or top-dose-only effect; inactive = no such curve, though single readings can be large or run the other way;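 also: % of control where 0% means no effect; miR-21 action dims this reporter so a rising signal means less miR-21 action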
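Using DMEM plus 10% FBS, HeLa miR-21-FLuc cells are incubated with test compounds (final up to about 40uM) for 48 hours; firefly luciferase signal is then imaged following reagent-mediated lysis.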
A549 viability: A549 cytotoxicity, counter-screen for Nrf2 inhibitors; Potency, µM (doses to about 46 µM), without a hit: at the highest dose activity change, negative = cytotoxicity, usual class: inhibitors; AID 504648; A549 ARE-Fluc cells, CellTiter-Fluor viability, 18-24 h; 390,000 tested, 0.16% active; note: potency is the fitted concentration of half-maximal effect; % is set by controls: 0 for no effect and ±100 for the full control effect
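Cytotoxicity counterscreen: CellTiter-Fluor fluorescence was measured in A549 ARE_Fluc cells after 18-24 h of compound exposure in a concentration series. The subsequent BugLite luminescent read reports ARE-luciferase activity.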
GALK inh: galactokinase (human) inhibition. P51570. Purified GALK, Kinase-Glo residual ATP luminescence. Potency, µM (titrated, usually from 57.5 µM), for the others: at the top dose activity change, negative = inhibition, usual class: inhibitors. 270,000 tested, 0.007% active. AID 1868; note: potency is the fitted concentration of half-maximal effect; % is set by controls: 0 for no effect and ±100 for the full control effect
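Galactose (100 uM) and ATP (35 uM) were turned over by 5 nM GALK for 1 h at RT. Kinase-Glo Plus then converted the remaining ATP into a luminescent signal.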
Nrf2 block: inhibitors of Nrf2 signaling; Potency, µM (doses to about 46 µM), for inactives: at the highest dose activity change, negative = inhibition, actives largely listed as inhibitors; A549 ARE-Fluc reporter, luciferase luminescence, 18-24 h; AID 504444; 360,000 tested, 2.1% active; note: potency is the fitted concentration of half-maximal effect; % is set by controls: 0 for no effect and ±100 for the full control effect; nearly all actives have a fitted effect of over 60% in size
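Cells were seeded and rested 2 h, then exposed to compounds for 18-24 h. CellTiter-Fluor was read first as a viability measure. BugLite was added 15 min before the final luminescent read of ARE-luciferase activity in A549 cells.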
Nrf2 activator: activators of Nrf2 (ARE) signaling. AREc32 ARE-luciferase reporter (MCF7-derived line), luminescence, 24 h. Potency, µM (highest dose often 46.1 µM), without a hit: top-dose activation, usual class: activators. 410,000 tested, 0.31% active; note: potency is the fitted concentration of half-maximal effect; % of control where 0% means no effect; nearly all actives have a fitted effect of over 65% in size
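Nrf2 activation is followed as ARE-luciferase induction in the AREc32 line after one day of compound treatment; luminescence is read with Steady-Glo.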
* = called active by the depositor; ? = inconclusive; · = no result. Unless noted, calls come from the whole dose curve; as a rule, active = well fitted curve in the direction sought with a large enough effect; inconclusive = small, poorly fitted or top-dose-only effect, or another doubt; inactive = no such curve, though single readings can be large; an effect the other way counts as inactive or inconclusive.

Letters – A = PI4K2A inh; B = miR-21 FLuc; C = A549 viability; D = GALK inh; E = Nrf2 block; F = Nrf2 activator
CCCS(=O)(=O)N1CCN(c2cc3c(cc2[N+](=O)[O-])n(C)c(=O)n3C)CC1
  A: -4; B: 7%; C: -13%; D: 2%; E: 12µM*; F: 4%

Cn1c(=O)n(C)c2cc([N+](=O)[O-])c(N3CCN(C(=O)c4cccc(F)c4)CC3)cc21
  A: -9; B: 13%; C: -10%; D: 10%; E: 9.2µM*; F: 6%

Cc1ccc(S(=O)(=O)N2CCN(c3c([N+](=O)[O-])cc(C(F)(F)F)cc3[N+](=O)[O-])CC2)cc1
  A: -1; B: -2%; C: ?; D: 1%; E: -9%; F: 0%

Cc1ccc(S(=O)(=O)N2CCN(c3cc4c(cc3[N+](=O)[O-])n(C)c(=O)n4C)CC2)cc1
  A: -4; B: 1%; C: 0%; D: 5%; E: ?; F: 6%

Cc1ccc(S(=O)(=O)N2CCN(c3ccc(C(F)(F)F)cc3[N+](=O)[O-])CC2)cc1
  A: -22; B: 14%; C: -20%; D: -1%; E: 16µM*; F: 1%

O=S1(=O)CC2c3ccccc3CN2CN1Cc1ccccc1 (stereo unspecified)
  A: 4; B: ·; C: ·; D: ·; E: ·; F: ·

COc1ccc(-n2c(COc3ccc(C)cc3)nnc2SCC(=O)Nc2ccc(S(=O)(=O)Nc3cc(C)nc(C)n3)cc2)cc1
  A: 4; B: ·; C: ·; D: ·; E: ·; F: ·

O=C(NC1CCCCN(Cc2cccc(C(F)(F)F)c2)C1=O)c1cccc(F)c1 (stereo unspecified)
  A: -7; B: ·; C: ·; D: ·; E: ·; F: ·

C[C@H]1[C@@H](NC(=O)c2ccc(C(C)(C)C)cc2)CC[C@@]23CCCN2C(=O)CCC[C@@H]13
  A: 2; B: ·; C: ·; D: ·; E: ·; F: ·

O=C1CCc2cc(S(=O)(=O)Nc3ccccc3-c3ccccc3)ccc2N1
  A: ·; B: ·; C: 1%; D: ·; E: -8%; F: ·

Cc1ccc(C)c(N2CCN(C(=O)c3ccc(Cn4c(=O)[nH]c5ccccc5c4=O)cc3)CC2)c1
  A: 5; B: ?; C: -22%; D: -2%; E: 7.3µM*; F: -1%

CCc1ccc(-n2nc(C)c3c(C)cc(=O)n(CC(=O)N(CC)Cc4ccccc4)c32)cc1
  A: 7; B: -3%; C: 1%; D: ·; E: 10%; F: 4%

CCN(Cc1ccccc1)C(=O)Cn1c(=O)cc(C)c2c(C)nn(-c3cccc(F)c3)c21
  A: -4; B: 16%; C: -22%; D: ·; E: 21µM*; F: -1%

Cc1cccc(/C=C(\c2nc3ccccc3[nH]2)S(=O)(=O)c2ccccc2)c1
  A: -10; B: ?; C: ?; D: -2%; E: 23µM*; F: ?

COc1cccc(-c2nc(NC(C)C)c3ccccc3n2)c1O
  A: 2; B: 16%; C: ·; D: -1%; E: ?; F: 0%

Arranged by the number under miR-21 FLuc (lowest first): 3 of the compounds above.
compound | miR-21 FLuc
Cc1ccc(S(=O)(=O)N2CCN(c3c([N+](=O)[O-])cc(C(F)(F)F)cc3[N+](=O)[O-])CC2)cc1 | -2%
CCCS(=O)(=O)N1CCN(c2cc3c(cc2[N+](=O)[O-])n(C)c(=O)n3C)CC1 | 7%
COc1cccc(-c2nc(NC(C)C)c3ccccc3n2)c1O | 16%

(next part)
Letters – A = PI4K2A inh; B = miR-21 FLuc; C = A549 viability; D = GALK inh; E = Nrf2 block; F = Nrf2 activator
CCC(C)Nc1nc(-c2cccc(OC)c2O)nc2ccccc12 (stereo unspecified)
  A: 3; B: -7%; C: ?; D: 3%; E: 21µM*; F: -2%

O[C@@H](COc1cccc2ncccc12)CN1CCN(C2c3ccccc3[C@@H]3[C@H](c4ccccc42)C3(F)F)CC1 (stereo partly specified)
  A: -7; B: ·; C: ·; D: ·; E: ·; F: ·

CSCC[C@H](NC(=O)c1cccc(S(=O)(=O)N2CCCCCC2)c1)c1nc2ccccc2[nH]1
  A: -6; B: ·; C: ?; D: ·; E: 18µM*; F: 0%

COc1ccccc1C1NC(=O)NC(C)=C1C(=O)OCc1ccccc1 (stereo unspecified)
  A: 4; B: 1%; C: 2%; D: -6%; E: -7%; F: 0%

CC1=C(C(=O)OCc2ccccc2)C(c2ccccc2OC(F)F)NC(=O)N1 (stereo unspecified)
  A: -2; B: 11%; C: -8%; D: 10%; E: 23µM*; F: 3%

CCOc1ccccc1C1NC(=O)NC(C)=C1C(=O)OC1CCCC1C (stereo unspecified)
  A: 0; B: -7%; C: -9%; D: -4%; E: -26%; F: 0%

CCOc1ccccc1C1NC(=O)NC(C)=C1C(=O)OC1CCCCC1 (stereo unspecified)
  A: 2; B: -3%; C: -26%; D: -3%; E: 21µM*; F: 0%

Cc1nc2ccc(S(=O)(=O)NCC(=O)N(C)Cc3ccccc3Cl)cc2s1
  A: 4; B: ·; C: ·; D: ·; E: ·; F: ·

Compound activity (PubChem)
